Experimental data reported in the NIST ThermoML archive (doi:10.1016/j.jct.2007.09.007).
Numbers after ± are expanded uncertainties.

Details: 101.33 kPa, Liquid

CCCCOCCCC [dibutyl ether]
mass density (288.15 K): 772.33 ± 0.85 kg/m3 | mass density (293.15 K): 768.07 ± 0.86 kg/m3 | mass density (298.15 K): 763.76 ± 0.87 kg/m3 | mass density (303.15 K): 759.43 ± 0.88 kg/m3
